Laboratory results published in US20260001863A1, “NOVEL PYRIDAZINES” (Boehringer Ingelheim International GmbH, priority 2019, published 2026).

System: plasma LPA
Experiment: Assay C: In Vivo (plasma LPA reduction after oral dosing)
Details: rats, oral 5 mg/kg, plasma 8 hours post application vs baseline; sum of LPA 16:0, 18:0, 18:1, 18:2, 20:4

CCc1nc2c(F)cc(N3CCN(CC(=O)N4CC(O)C4)CC3)cn2c1N(C)c1nc(-c2ccc(F)cc2)c(C#N)s1
LPA reduction at 8 h: 60.3%
